Results: paper PMC5147891 (PLoS ONE, 2016)

Chains of the proteins cited; added tags and fusions are not shown.
UniProt P35372, whole entry: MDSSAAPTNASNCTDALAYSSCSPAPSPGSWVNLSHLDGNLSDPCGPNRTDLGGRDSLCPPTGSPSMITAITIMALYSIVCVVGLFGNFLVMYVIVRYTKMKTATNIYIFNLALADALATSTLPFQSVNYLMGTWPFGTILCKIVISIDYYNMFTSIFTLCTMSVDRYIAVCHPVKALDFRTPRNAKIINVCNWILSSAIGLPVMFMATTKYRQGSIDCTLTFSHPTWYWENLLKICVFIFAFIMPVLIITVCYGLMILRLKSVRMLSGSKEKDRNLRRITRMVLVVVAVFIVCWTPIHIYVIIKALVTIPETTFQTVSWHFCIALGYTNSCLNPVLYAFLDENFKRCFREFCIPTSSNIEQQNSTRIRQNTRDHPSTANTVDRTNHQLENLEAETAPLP

Target: T1, human mu-opioid receptors (hMOR) (Homo sapiens, UniProt P35372)
T1 construct: expressed in transfected cells
Assay: [35S]GTPγS binding (G-protein activity), CHO-hMOR membranes
Assay type: biochemical
Conditions: SERMs 10 μM, DAMGO 1 μM
Method: CHO-hCB1, CHO-hCB2 and CHO-hMOR cells were homogenized individually with 10 complete strokes utilizing a 7ml Dounce glass homogenizer in an ice-cold buffer containing 50 mM HEPES pH 7.4, 3 mM MgCl2, and 1 mM EDTA as described previously. The homogenized samples were then centrifuged at 40,000 × g for 10 min at 4°C. Supernatants were discarded; the pellets re-suspended in the buffer, homogenized again, and centrifuged similarly twice more. After the final centrifugation step, supernatants were discarded and pellets were re-suspended in ice-cold 50 mM HEPES, pH 7.4 to achieve an approximate protein concentration of 10 mg/ml. […] A small aliquot of each membrane preparation was removed prior to freezing and the protein concentration was determined using BCA Protein Assay (Thermo Fisher Scientific, Waltham, MA).
The GTPγS binding assay to measure G-protein activation was performed as previously described. […] Nonspecific binding was defined by the amount of radioactivity remaining in the presence of 10 μM non-radiolabeled GTPγS. […] Four ml of scintiverse scintillation fluid (Fisher Scientific, Waltham, MA) was added to the filters and the amount of radioactivity was quantified 24 hr later utilizing liquid scintillation spectrophotometry.
Data presented are expressed as mean ± standard error of the mean (S.E.M.) for a minimum of three experiments, each performed in triplicate. […]

For DAMGO, the “Effect on basal [35S]GTPγS binding” value was “increased”.
